PubChem BioAssay (NCATS)
The list shows a part of the results, in another mix than the full data. Records with an inconclusive call do not appear. Activity calls are given as the source filed them. Calls follow the shape of the dose curve; as a rule, active = well fitted curve in the direction sought with a large enough effect; inconclusive = small, poorly fitted or top-dose-only effect, or another doubt; inactive = no such curve, though single readings can be large; an effect the other way counts as inactive or inconclusive.

Assays:
[1] = Quantitative High-Throughput drug screen in 47 multiple myeloma cell lines against the NCATS MIPE library collection: KMS12PE_JCRB cell viability assay (AID 1918972); details: KMS12PE myeloma viability, CellTiter-Glo ATP, 48 h; also: potency is read from the fitted curve at half-maximal effect; nearly all actives have a fitted effect of over 30% in size
[2] = Quantitative High-Throughput drug screen in 47 multiple myeloma cell lines against the NCATS MIPE library collection: MOLP8_DSMZ cell viability assay (AID 1918977); details: MOLP8 myeloma viability, CellTiter-Glo ATP luminescence, 48 h; at 45.8 µM (top of the series); also: nearly all actives have a fitted effect of over 45% in size
[3] = Quantitative High-Throughput drug screen in 47 multiple myeloma cell lines against the NCATS MIPE library collection: NCIH929_DSMZ cell viability assay (AID 1918978); details: NCI-H929 myeloma viability, CellTiter-Glo ATP, 48 h; at 45.8 µM (top of the series); also: nearly all actives have a fitted effect of over 35% in size
[4] = Quantitative High-Throughput drug screen in 47 multiple myeloma cell lines against the NCATS MIPE library collection: MM1R_ATCC cell viability assay (AID 1918981); details: MM1R multiple myeloma cells, CellTiter-Glo viability, 48 h; at 45.8 µM (top of the series); also: nearly all actives have a fitted effect of over 35% in size
[5] = Quantitative High-Throughput drug screen in 47 multiple myeloma cell lines against the NCATS MIPE library collection: KMS28PE_JCRB cell viability assay (AID 1918983); details: KMS28PE multiple myeloma viability, CellTiter-Glo ATP, 48 h; at 45.8 µM (top of the series); also: nearly all actives have a fitted effect of over 35% in size
[6] = Quantitative High-Throughput drug screen in 47 multiple myeloma cell lines against the NCATS MIPE library collection: KMS34_JCRB cell viability assay (AID 1918985); details: KMS34 myeloma viability, CellTiter-Glo ATP luminescence, 48 h; at 45.8 µM (top of the series); also: nearly all actives have a fitted effect of over 40% in size
[7] = Quantitative High-Throughput drug screen in 47 multiple myeloma cell lines against the NCATS MIPE library collection: OCIMY7_PLB cell viability assay (AID 1918987); details: OCI-MY7 myeloma viability, CellTiter-Glo ATP, 48 h; at 45.8 µM (top of the series); also: nearly all actives have a fitted effect of over 65% in size
In short: (§1)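 ATP-based CellTiter-Glo luminescence after 48 h drug exposure (37 °C, 5% CO2) of 500 myeloma cells per well. DMSO-only wells set 100% viability, media-only wells 0%; MIPE 4.0 library added by pin tool.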

[8] = Quantitative High-Throughput drug screen in 47 multiple myeloma cell lines against the NCATS MIPE library collection: SKMM1_PLB cell viability assay (AID 1919863); details: SKMM1 myeloma viability, CellTiter-Glo ATP, 48 h; active compounds read low; also: nearly all actives have a fitted effect of over 35% in size
[9] = Quantitative High-Throughput drug screen in 47 multiple myeloma cell lines against the NCATS MIPE library collection: U266_ATCC cell viability assay (AID 1919864); details: U266 myeloma viability, CellTiter-Glo ATP luminescence, 48 h; at 45.8 µM (top of the series); also: nearly all actives have a fitted effect of over 35% in size
In short: as §1

[10] = Quantitative High-Throughput drug screen in 47 multiple myeloma cell lines against the NCATS MIPE library collection: VP6_DJ cell viability assay (AID 1919867); details: ATP luminescence, 48 h; also: potency is read from the fitted curve at half-maximal effect; nearly all actives have a fitted effect of over 40% in size
In short: as §1

[11] = Quantitative High-Throughput drug screen in 47 multiple myeloma cell lines against the NCATS MIPE library collection: UTMC2_PLB cell viability assay (AID 1919868); details: CellTiter-Glo ATP luminescence, 48 h; at 45.8 µM (top of the series); also: nearly all actives have a fitted effect of over 55% in size
[12] = Quantitative High-Throughput drug screen in 47 multiple myeloma cell lines against the NCATS MIPE library collection: PE2_PLB cell viability assay (AID 1919869); details: PE2_PLB myeloma cells viability, ATP luminescence, 48 h; at 45.8 µM (top of the series); also: nearly all actives have a fitted effect of over 35% in size
[13] = Quantitative High-Throughput drug screen in 47 multiple myeloma cell lines against the NCATS MIPE library collection: PCM6_Riken cell viability assay (AID 1919870); details: CellTiter-Glo ATP, 48 h; also: potency is read from the fitted curve at half-maximal effect; nearly all actives have a fitted effect of over 30% in size
[14] = Quantitative High-Throughput drug screen in 47 multiple myeloma cell lines against the NCATS MIPE library collection: RPMI8226_ATCC cell viability assay (AID 1919871); details: RPMI8226 myeloma viability, CellTiter-Glo ATP luminescence, 48 h; also: potency is read from the fitted curve at half-maximal effect; nearly all actives have a fitted effect of over 30% in size
[15] = Quantitative High-Throughput drug screen in 47 multiple myeloma cell lines against the NCATS MIPE library collection: OPM2_DSMZ cell viability assay (AID 1919872); details: OPM2 myeloma viability, CellTiter-Glo ATP luminescence, 48 h; at 45.8 µM (top of the series); also: nearly all actives have a fitted effect of over 30% in size
[16] = Quantitative High-Throughput drug screen in 47 multiple myeloma cell lines against the NCATS MIPE library collection: KMS11_JCRBsus cell viability assay (AID 1919873); details: KMS11 myeloma viability, CellTiter-Glo ATP luminescence, 48 h; also: potency is read from the fitted curve at half-maximal effect; nearly all actives have a fitted effect of over 50% in size
[17] = test system: CRL-7250; assay: Cytotoxic Profiling of Annotated Libraries Using Quantitative High-Throughput Screening (AID 1296008); details: Five cell lines viability, CellTiter-Glo ATP luminescence, 48-72 h; active compounds read low; also: % is scaled to controls: 0 for no effect and ±100 for the full control effect; nearly all actives have a fitted effect of over 60% in size
[18] = test system: HaCat; assay: as above; details: Five cell lines viability, CellTiter-Glo ATP luminescence, 48-72 h; active compounds read low
[19] = test system: KB-3-1; assay: as above; details: Five cell lines viability, CellTiter-Glo ATP luminescence, 48-72 h, active compounds read low
[20] = test system: NIH3T3; assay: as above; details: Five cell lines viability, CellTiter-Glo ATP luminescence, 48-72 h; active compounds read low
[21] = test system: MCC-13; assay: qHTS assay to identify novel small-molecules to repurpose for Merkel cell carcinoma treatment (AID 1296009); details: MCC and control cell lines, CellTiter-Glo viability, 72 h; at 46 µM (top of the series) unless noted; also: % is scaled to controls: 0 for no effect and ±100 for the full control effect; nearly all actives have a fitted effect of over 60% in size
[22] = test system: MCC-26; assay: as above; details: MCC and control cell lines, CellTiter-Glo viability, 72 h; at 46 µM (top of the series) unless noted
[23] = test system: MKL-1; assay: as above; details: MCC and control cell lines, CellTiter-Glo viability, 72 h; at 46 µM (top of the series) unless noted
[24] = test system: MKL-2; assay: as above; details: MCC and control cell lines, CellTiter-Glo viability, 72 h; at 46 µM (top of the series) unless noted
[25] = test system: UISO; assay: as above; details: MCC and control cell lines, CellTiter-Glo viability, 72 h; at 46 µM (top of the series)
[26] = test system: WaGa; assay: as above; details: MCC and control cell lines, CellTiter-Glo viability, 72 h; at 46 µM (top of the series) unless noted

CCn1c(=O)n([C@@H]2CCN(CC3CCCCCCC3)C[C@@H]2CO)c2ccccc21
inactive: viability (% of control) [2] 84.1% | viability, % of control [3] 103% | viability (% of control) [4] 87% | viability, % of DMSO control [5] 93% | viability, percent of control [6] 105% | viability (% of DMSO) [7] 118% | viability [8] 98.9% | viability (% of DMSO control) [9] 111% | viability (% of DMSO control) [11] 127% | viability (% of control) [12] 86.9% | viability (% of DMSO) [15] 96.2% | max response [17] 3.27% | max response [18] 1.17% | max response [19] 4.58% | max response [20] -10.2% | activity change, negative = cytotoxicity [21] 3.09% | activity change, negative = cytotoxicity [22] -11% | activity change, negative = cytotoxicity [23] -1.75% | activity change, negative = cytotoxicity [24] -7.48% | activity change, negative = cytotoxicity [25] -12.7% | activity change, negative = cytotoxicity [26] -4.02%
active: Potency [1] 18.7 µM | Potency [10] 23.5 µM | Potency [13] 20.9 µM | Potency [14] 14.8 µM | Potency [16] 10.5 µM
